Reference: paper PMC5411959, “Potential Antiosteoporotic Natural Product Lead Compounds That Inhibit 17β-Hydroxysteroid Dehydrogenase Type 2” (Journal of Natural Products, 2017)

How the values were obtained:
human 17β-HSD1 = molecular target: T1, human 17β-HSD1 (Homo sapiens, UniProt P14061); assay: 17β-HSD1 activity assay using lysates of HEK-293 cells expressing the recombinant human enzyme; type: biochemical; conditions: 17β-HSD1 versus 17β-HSD2
T1 construct: expressed in transfected cells; host or cells: HEK-293 (ATCC), used as cell lysate
T1 sequence (P14061 1-328): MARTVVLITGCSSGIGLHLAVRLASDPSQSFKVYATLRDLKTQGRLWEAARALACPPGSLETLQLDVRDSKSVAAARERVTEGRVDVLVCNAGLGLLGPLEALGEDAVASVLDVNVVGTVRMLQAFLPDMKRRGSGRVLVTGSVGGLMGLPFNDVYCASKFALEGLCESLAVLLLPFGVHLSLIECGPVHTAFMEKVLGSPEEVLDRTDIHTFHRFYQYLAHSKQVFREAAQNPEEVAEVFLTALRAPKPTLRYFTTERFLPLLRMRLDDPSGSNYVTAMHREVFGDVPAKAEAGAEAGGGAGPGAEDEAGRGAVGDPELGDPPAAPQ

17β-HSD2 = system: 17β-HSD2; design: method as in PMID 18533708; conditions: read-out: inhibition of 17β-HSD2: IC50 (μM); mean ± SD; cited from earlier work

| selectivity factor (human 17β-HSD1) | SMILES | IC50 (17β-HSD2) |
| --- | --- | --- |
| >5 | O=C(/C=C/c1ccc(O)c(O)c1)O[C@H](Cc1ccc(O)c(O)c1)C(=O)O [compound 11, rosmarinic acid] |  |
|  | O=c1c(-c2ccc(O)cc2)coc2cc(O)cc(O)c12 [compound 32, genistein] | 16.5 ± 2.7 µM |
